Experimental findings from publication PMC6923863 (BMC Pharmacology & Toxicology, 2019) are described below.

For this test, the target named is NMDA receptor (Rattus norvegicus, UniProt P35439). The test is described as follows: biochemical. Conditions: IC50, 5 nM [3H]-MK-801, rat brain preparations, pH 7.4, 3 h, 25 °C.

pIC50: −log10 of the molar value. Values joined by “and” are separate entries in the source; they are usually repeats but may differ in a detail not shown here. Identical values can stand only once. Where only a bound is given, the exact number is not on record here.

Take `CNC1(c2ccccc2Cl)CCCCC1=O` (stereo not shown) [Ketamine]: the pIC50 was > 6.00 and 6.15.
